Yeast mating assay 1: variants of the scFv Ab-14

The target is the same throughout: PDVDLGDISGINAS, from the HR2 region of SARS-CoV-2 spike.

Ab-14 is the parent antibody, in scFv form: VH, then a 15-residue (Gly4Ser)3 linker, then VL. The heavy chain is unchanged in all variants.
VH: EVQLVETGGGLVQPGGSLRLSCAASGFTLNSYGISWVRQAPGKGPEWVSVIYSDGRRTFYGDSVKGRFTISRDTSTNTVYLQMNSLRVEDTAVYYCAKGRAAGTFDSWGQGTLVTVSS
VL: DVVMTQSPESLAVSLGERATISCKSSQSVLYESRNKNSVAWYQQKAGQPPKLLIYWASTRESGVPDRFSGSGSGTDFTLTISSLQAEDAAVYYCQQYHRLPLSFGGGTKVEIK

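The parent was found by panning a naive human phage display library on the peptide. Variants in AAYL50 differ from the parent at up to three CDR positions; double and triple changes were sampled at random. The assay is AlphaSeq: two haploid yeast populations carry antibody and antigen on their surface. Binding brings cells together so that they mate, and sequencing counts the barcode pairs among the diploids. The ratio of observed to expected reads was calibrated, replicate by replicate, on BCL2-family standards whose Kd was known from biolayer interferometry. Each pool was mated in three replicate cultures.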

Positions count from residue 1 of the parent VL; Y31Q puts Q in place of Y. Affinities are written as log10 Kd with Kd in nM; a lower number is a better binder. A pair that was not seen in that replicate is written "nd"; this usually means weak binding, but a binder can also be missed. Three control strains display no target. For library AAYL50, 18% of the pairings with them gave a signal, with a median of 4.19 and one signal in twenty below 2.99, so weak values seen in few replicates may be background. Also given: how often the same scFv was detected with the empty control strains. For reference, the parent read 0.65 as the reference entry and 1.68 as a member of this library.

Y31Q+E32F+N35D: 0.62, 0.83, 0.72 (controls 5 of 9).
L30Q+N37W+A57K: nd, nd, nd (controls 0 of 9).
S28P+S62I+L100M: 0.82, 0.99, 0.91 (controls 2 of 9).
L30Y+R34F+Y97L: nd, nd, nd (controls 0 of 9).
N35W+W56D+S58H: -0.12, 0.39, 0.25 (controls 7 of 9).
K24L+L102I+S103Q: 2.56, 2.40, 3.00 (controls 3 of 9).
S25R+S33F+K36S: nd, nd, nd (controls 0 of 9).
K24Q+Q27N+Q96I: nd, nd, nd (controls 1 of 9).
E32K+S58C: 3.36, 3.15, 3.62 (controls 4 of 9).
K36T+Q96C+Y97C: 2.96, 2.64, 3.27 (controls 3 of 9).
Y97M+R99Q: 5.28, 4.53, nd (controls 2 of 9).
A57C+Y97N+L102R: 3.45, 2.99, nd (controls 1 of 9).
S33K+N35F+S58K: nd, nd, 3.14 (controls 1 of 9).
V29F+K36T+S103R: 2.52, 2.95, 2.93 (controls 0 of 9).
N37K+E61V: 1.11, 1.20, 1.24 (controls 2 of 9).
N37A+T59D+Q95F: nd, nd, nd (controls 2 of 9).
V29N+N35E+Q96H: 3.67, 4.26, nd (controls 6 of 9).
L30E+S62M+Q95Y: nd, nd, nd (controls 1 of 9).
E32H+T59P+L100F: 5.51, nd, 4.17 (controls 2 of 9).
S62P: 1.09, 1.22, 1.18 (controls 4 of 9).
S26T+N37K+S38E: 2.66, 2.40, 2.27 (controls 0 of 9).
R34F+N35V+S58P: nd, nd, nd (controls 2 of 9).
K24F+S62E+S103H: 2.16, 2.06, 1.91 (controls 3 of 9).
Q27I+S38H: 3.47, 3.49, 5.75 (controls 2 of 9).
S28W+K36R+L102T: 1.97, 2.15, 1.94 (controls 0 of 9).
V29N+N35I+H98W: 0.97, 0.85, 0.87 (controls 0 of 9).
L30D+Y31R+A40T: nd, nd, nd (controls 1 of 9).
A40I+S62C: nd, nd, 5.12 (controls 0 of 9).
K24G+R34A+L100N: 1.24, 1.27, 1.14 (controls 1 of 9).
S26R+S28P+R99C: nd, nd, nd (controls 0 of 9).
S25Q+S38H+H98Q: 0.87, 1.06, 0.98 (controls 0 of 9).
K24E+V29S+E61N: 2.64, 2.56, 2.64 (controls 4 of 9).
K24C+A40R+H98C: nd, nd, nd (controls 0 of 9).
E32K+E61S: 3.58, nd, 5.65 (controls 3 of 9).
R34P+A57Y+S103A: nd, nd, nd (controls 0 of 9).
Y31M+Y97M+P101T: nd, nd, nd (controls 0 of 9).
S33M+S58Q+L102G: nd, nd, nd (controls 0 of 9).

Reference: Engelhart et al. 2022, doi:10.1038/s41597-022-01779-4. File: FLAb, binding data.